Assay: Gamma irradiation dosing studies, naproxen assay and degradants
Assay type: physicochemical
Description: Without being bound by theory, it is believed that the source of the degradation product is from the naproxen active pharmaceutical ingredient (API). Gamma irradiation dosing studies of naproxen API were conducted with doses of 0, 5, 10, 15, 25, 30, 40, and 50 kGy. A degradation product was detected in the API at the same Relative Retention Time (RRT) as the degradant in the GIL samples. The degradant in the API was present in all samples at all radiation doses tested. There was a direct relationship between the gamma dose and quantity of the degradation product.
Without being bound by theory, it is believed that the source of the degradation product is from the active naproxen pharmaceutical ingredient (API). Gamma irradiation dosing studies of naproxen API were conducted with doses of 0, 5, 10, 15, 25, 30, 40, and 50 kGy. A degradation product was detected in the naproxen API at the same Relative Retention Time (RRT) as the degradant in the GIL samples. The degradant in the naproxen API was present in all samples at all radiation doses tested. There was a direct relationship between the gamma dose and quantity of the degradation product. Refer to Example 2, Table 7 for the results of this testing.

Naproxen Assay Relative to Control (gamma dose 15 kGy): 101.38 | Naproxen Assay Relative to Control (gamma dose 25 kGy): 101.02 | Naproxen Assay Relative to Control (gamma dose 30 kGy): 101.41
SMILES: COc1ccc2cc([C@H](C)C(=O)O)ccc2c1 [Naproxen (API), naproxen]
